Like-named read-outs stand apart in the source and are kept apart here.
Molecular target: CYP3A4 (Homo sapiens, UniProt P08684)
Assay: CYP3A inhibition assay in pooled human hepatic microsomal fraction (midazolam 1-hydroxylase and testosterone 6β-hydroxylase activities)
Details: human hepatic microsomes
Experimental: Pooled (n≧15 donors) human hepatic microsomal fraction was obtained from BD-Gentest (Woburn, Mass.) who also supplied hydroxy-terfenadine, 4′-hydroxydiclofenac and NADPH regenerating system. Ritonavir was prepared from commercial Norvir® oral solution (Abbott Laboratories, Abbott Park, Ill.). Other reagents were from Sigma-Aldrich (St. Louis, Mo.) and included terfenadine, fexofenadine, BRL 15572, diclofenac and mefenamic acid.
Incubations were performed in duplicate in 50 mM potassium phosphate buffer, pH 7.4 with NADPH regenerating system used as described by the manufacturer. […] The final substrate concentrations used were equal to the apparent Km values for the activities determined under the same conditions. […]
The LC-MS system consisted of a Waters Acquity UPLC, with a binary solvent manager and a refrigerated (8° C.) sample organizer and sample manager, interfaced to a Micromass Quattro Premier tandem mass spectrometer operating in electrospray ionization mode. […] Concentrations of metabolites were determined by reference to standard curves generated with authentic analytes under the same conditions as the incubations. […]
For LC-MS analysis the column was a Phenomenex Synergi Max RP 4 μm column (50×2.0 mm) and the injection volume was 5 μL. […] Rates of metabolite formation were determined from standard curves using PAR determined with authentic metabolite standards.

Amino acid sequences for entries named in this document (tags omitted). Residues count along the entry.
UniProt P08684, 2-503 limits assumed: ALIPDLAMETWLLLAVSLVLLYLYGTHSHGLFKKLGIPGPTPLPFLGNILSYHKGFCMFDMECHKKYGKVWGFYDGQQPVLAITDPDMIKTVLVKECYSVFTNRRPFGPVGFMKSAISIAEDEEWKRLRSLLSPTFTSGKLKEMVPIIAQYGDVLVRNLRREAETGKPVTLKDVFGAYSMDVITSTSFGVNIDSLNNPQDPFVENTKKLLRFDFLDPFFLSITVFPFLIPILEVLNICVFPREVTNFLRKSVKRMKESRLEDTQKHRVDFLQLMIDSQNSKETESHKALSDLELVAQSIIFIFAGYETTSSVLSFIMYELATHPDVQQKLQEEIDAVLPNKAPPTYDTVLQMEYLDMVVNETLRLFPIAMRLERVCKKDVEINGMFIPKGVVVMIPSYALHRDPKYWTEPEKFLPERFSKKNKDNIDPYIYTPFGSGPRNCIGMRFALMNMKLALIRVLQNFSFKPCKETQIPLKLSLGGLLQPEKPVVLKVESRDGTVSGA

CCCCC[C@H]1CC[C@H](C(=O)N[C@H](CC[C@H](Cc2ccccc2)NC(=O)OCc2cncs2)Cc2ccccc2)CC1
IC50 (read-out: CYP3A4 IC50 (μM) (midazolam), probe activity midazolam 1-hydroxylase): 2 µM | IC50 (read-out: CYP3A4 IC50 (μM) (testosterone), probe activity testosterone 6β-hydroxylase, substrate 50 μM): 10 µM

— patent US20130280212A1, “INHIBITORS OF CYTOCHROME P450” (GILEAD SCIENCES, INC, priority 2010, published 2013)
